Test results from US7524847B2, “Fused 1,3-dihydro-imidazole ring compounds” (Eisai R&D Management Co., Ltd., priority 2002, dated 2009).

The chains behind the UniProt entries cited, without tags or fusion partners. Where a name states a change or a piece, a line headed by the entry shows the natural chain unless it says otherwise.
UniProt P22411: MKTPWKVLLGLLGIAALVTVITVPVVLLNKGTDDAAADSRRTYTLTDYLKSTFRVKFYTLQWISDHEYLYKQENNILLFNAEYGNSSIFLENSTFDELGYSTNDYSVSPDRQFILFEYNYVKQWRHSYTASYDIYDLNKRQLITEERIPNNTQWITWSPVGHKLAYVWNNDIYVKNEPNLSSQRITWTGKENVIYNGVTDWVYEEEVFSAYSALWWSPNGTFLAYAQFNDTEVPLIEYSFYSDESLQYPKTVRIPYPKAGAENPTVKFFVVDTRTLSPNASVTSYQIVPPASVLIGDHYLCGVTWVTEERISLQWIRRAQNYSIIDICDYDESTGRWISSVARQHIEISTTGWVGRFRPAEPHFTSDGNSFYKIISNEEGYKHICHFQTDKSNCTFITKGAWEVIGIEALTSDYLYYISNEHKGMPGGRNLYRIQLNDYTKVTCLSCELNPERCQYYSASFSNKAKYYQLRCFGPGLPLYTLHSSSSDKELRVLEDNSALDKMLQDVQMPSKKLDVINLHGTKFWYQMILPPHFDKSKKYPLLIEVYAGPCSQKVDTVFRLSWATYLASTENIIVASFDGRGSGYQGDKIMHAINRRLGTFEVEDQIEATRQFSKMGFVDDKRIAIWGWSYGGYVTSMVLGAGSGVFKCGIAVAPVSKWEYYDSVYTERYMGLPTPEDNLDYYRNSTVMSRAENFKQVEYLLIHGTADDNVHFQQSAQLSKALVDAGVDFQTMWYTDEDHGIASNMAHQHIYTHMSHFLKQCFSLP

Target: T1, DPP-IV obtained from pig kidney (Sus scrofa, UniProt P22411)
T1 construct: DPP-IV obtained from pig kidney; from tissue; host or cells: pig kidney
Assay: Measurement of DPPIV-inhibiting activity (in vitro experiment)
Type: biochemical
Experimental: DPP-IV obtained from pig kidney was dissolved in a reaction buffer (50 mM Tris-HCl pH7.4, 0.1% BSA) at 10 mU/mL, and 110 μL of this was used. 15 μL of the drug obtained from the aforementioned Examples was added, and this was incubated at room temperature for 20 minutes, and then 25 μL of a 2 mM solution of Gly-Pro-p-nitroanilide (final concentration 0.33 mM) was added to start the enzymatic reaction. The reaction time was 20 minutes, and 1 N phosphoric acid solution (25 μL) was added to stop the reaction.

IC50: 226 µM
Structure (SMILES): N#Cc1ccc(NCCNCC(=O)N2CCC[C@H]2C#N)nc1 [Control compound, reference compound]
